Molecular target: Adenosine receptor A1 (Homo sapiens, UniProt P30542)
Test: Displacement of [3H]DPCPX from A1 adenosine receptor (unknown origin) expressed in CHO cell membrane incubated for 60 mins at room temperature by NXT microplate scintillation counter analysis
Format: cell membranes

Protein sequences, listed by entry. Tags and fused reporters are not part of them.
UniProt P30542, whole entry: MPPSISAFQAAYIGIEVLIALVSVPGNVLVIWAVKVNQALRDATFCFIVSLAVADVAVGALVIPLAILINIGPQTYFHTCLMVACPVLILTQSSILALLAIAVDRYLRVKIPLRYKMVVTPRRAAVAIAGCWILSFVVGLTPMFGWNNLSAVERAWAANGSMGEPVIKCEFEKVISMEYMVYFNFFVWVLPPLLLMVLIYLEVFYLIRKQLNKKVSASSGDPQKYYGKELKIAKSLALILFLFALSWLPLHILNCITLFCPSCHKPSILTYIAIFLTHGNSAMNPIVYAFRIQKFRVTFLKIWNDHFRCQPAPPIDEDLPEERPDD

Ki: 538 nM
SMILES: Nc1nc(-c2ccccc2)cc(-c2ccc3c(c2)OCO3)n1
